The text below walks through data of patent US7235366B1, “Methods of identifying agonists and antagonists of opioid receptors” (priority 1993, dated 2007).

Sequences of proteins named here, by UniProt entry; tags and fusion partners are left off. A change or cut given only in a name is not applied to a line headed by its entry.
UniProt P33534: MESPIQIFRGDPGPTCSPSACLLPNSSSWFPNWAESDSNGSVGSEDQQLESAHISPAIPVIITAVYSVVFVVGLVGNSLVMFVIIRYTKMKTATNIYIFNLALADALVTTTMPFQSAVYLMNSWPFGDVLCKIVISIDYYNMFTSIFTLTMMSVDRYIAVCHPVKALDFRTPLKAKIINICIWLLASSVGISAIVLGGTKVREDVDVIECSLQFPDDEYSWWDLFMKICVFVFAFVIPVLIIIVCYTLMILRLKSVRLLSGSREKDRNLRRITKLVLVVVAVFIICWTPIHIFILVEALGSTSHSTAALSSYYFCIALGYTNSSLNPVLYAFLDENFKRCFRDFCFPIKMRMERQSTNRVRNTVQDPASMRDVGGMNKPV
UniProt P32300, whole entry, looked up: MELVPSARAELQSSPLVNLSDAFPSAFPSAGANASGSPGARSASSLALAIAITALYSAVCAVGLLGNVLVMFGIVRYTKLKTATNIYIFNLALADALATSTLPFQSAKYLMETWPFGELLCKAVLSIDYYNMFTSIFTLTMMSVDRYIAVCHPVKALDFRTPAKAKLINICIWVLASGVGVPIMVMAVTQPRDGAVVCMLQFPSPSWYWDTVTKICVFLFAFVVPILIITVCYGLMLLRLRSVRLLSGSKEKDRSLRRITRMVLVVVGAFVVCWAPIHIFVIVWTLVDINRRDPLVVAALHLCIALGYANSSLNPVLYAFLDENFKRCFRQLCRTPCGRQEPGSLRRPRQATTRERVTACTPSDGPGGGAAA
UniProt P32300, whole entry D128N, looked up: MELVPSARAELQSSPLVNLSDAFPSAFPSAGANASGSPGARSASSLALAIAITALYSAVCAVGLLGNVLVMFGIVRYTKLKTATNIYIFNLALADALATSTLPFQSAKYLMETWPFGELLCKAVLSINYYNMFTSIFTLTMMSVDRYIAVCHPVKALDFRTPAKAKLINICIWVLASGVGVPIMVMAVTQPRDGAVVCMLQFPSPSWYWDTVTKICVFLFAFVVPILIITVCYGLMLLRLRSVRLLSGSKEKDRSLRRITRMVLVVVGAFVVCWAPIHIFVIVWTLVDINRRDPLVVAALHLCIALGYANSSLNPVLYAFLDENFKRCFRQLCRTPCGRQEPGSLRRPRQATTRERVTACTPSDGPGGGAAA
UniProt P32300, whole entry H278N, looked up: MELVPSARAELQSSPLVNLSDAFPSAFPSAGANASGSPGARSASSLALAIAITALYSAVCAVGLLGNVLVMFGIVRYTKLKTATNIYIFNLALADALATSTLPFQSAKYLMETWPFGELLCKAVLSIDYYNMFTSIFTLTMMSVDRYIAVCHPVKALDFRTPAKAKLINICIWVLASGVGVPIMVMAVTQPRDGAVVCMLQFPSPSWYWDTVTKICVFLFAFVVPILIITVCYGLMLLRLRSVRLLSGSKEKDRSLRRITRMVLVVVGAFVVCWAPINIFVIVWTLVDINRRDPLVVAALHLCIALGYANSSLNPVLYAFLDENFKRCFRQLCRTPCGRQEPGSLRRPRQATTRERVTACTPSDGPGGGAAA
UniProt P33535, whole entry, looked up: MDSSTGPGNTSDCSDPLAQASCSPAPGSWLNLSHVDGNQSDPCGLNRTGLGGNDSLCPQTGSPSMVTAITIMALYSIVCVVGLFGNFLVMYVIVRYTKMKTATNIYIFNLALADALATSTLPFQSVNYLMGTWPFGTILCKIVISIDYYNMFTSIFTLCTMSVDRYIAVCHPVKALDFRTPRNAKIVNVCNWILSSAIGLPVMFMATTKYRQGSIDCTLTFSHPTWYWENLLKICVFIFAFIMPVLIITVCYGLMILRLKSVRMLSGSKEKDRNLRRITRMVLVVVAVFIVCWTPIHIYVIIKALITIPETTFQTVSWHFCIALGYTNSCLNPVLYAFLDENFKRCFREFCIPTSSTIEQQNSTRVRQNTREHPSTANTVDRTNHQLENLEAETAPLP
UniProt P35377: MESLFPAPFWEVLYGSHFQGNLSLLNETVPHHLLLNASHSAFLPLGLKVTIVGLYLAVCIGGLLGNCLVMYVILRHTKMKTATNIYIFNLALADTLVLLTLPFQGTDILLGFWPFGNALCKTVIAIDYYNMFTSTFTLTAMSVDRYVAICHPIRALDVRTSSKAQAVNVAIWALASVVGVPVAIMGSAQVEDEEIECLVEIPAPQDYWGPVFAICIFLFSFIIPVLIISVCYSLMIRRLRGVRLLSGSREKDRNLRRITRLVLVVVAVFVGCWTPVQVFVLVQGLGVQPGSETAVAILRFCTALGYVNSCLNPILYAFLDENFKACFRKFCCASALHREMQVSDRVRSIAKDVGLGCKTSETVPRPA

As usually defined, the Ki is a dissociation constant, usually derived from enzyme kinetics or from competition with a known ligand.

One assay relates to κ/δ2eloop chimera. Description: Binding to second extracellular loop chimera. As to conditions: compared with wild-type receptors.
Another assay addresses cloned mouse κ receptor (Mus musculus, UniProt P33534). As to conditions: read-out: Binding potencies (Ki-nM) κ RECEPTOR [^3H] U-69, 593; PC12 cell membranes.
A further assay has as its target cloned mouse δ receptor (Mus musculus, UniProt P32300). As to conditions: read-out: Binding potencies (Ki-nM) δ RECEPTOR [^3H] naltrindole; CHO-DG44 cell membranes.
Another assay has as its target cloned rat μ receptor (Rattus norvegicus, UniProt P33535). As to conditions: read-out: Binding potencies (Ki-nM) μ RECEPTOR [^3H] DAMGO; COS-7 cell membranes.
In assay [1] the target is wild-type mouse delta opioid receptor (Mus musculus, UniProt P32300). The assay can be described thus: ^3H-naltrindole binding, COS-7 cell membranes, wild-type delta receptor. As to conditions: read-out: Potencies of Antagonist binding, Wild-type (Ki values in nM); inhibition of ^3H-naltrindole binding.
Assay [2] concerns the target D128N mutant mouse delta opioid receptor (Mus musculus, UniProt P32300, D128N). Description: ^3H-naltrindole binding, COS-7 cell membranes, D128N mutant. As to conditions: read-out: Potencies of Antagonist binding, D128N mutant (Ki values in nM); inhibition of ^3H-naltrindole binding.
The target of assay [3] is H278N mutant mouse delta opioid receptor (Mus musculus, UniProt P32300, H278N). The assay can be described thus: ^3H-naltrindole binding, COS-7 cell membranes, H278N mutant. As to conditions: read-out: Potencies of Antagonist binding, H278N mutant (Ki values in nM); inhibition of ^3H-naltrindole binding.
The next assay addresses MOP2 (Mus musculus, UniProt P35377). The assay can be described thus: Binding of opioid radioligands to MOP2 expressed in COS-7 cells.

For `CN(C(=O)Cc1ccc(Cl)c(Cl)c1)C1CCC2(CCCO2)CC1N1CCCC1` (stereo not shown), the “Binding to the κ/δ2eloop chimera” value in the assay with κ/δ2eloop chimera is “did not bind”. The Ki at cloned mouse κ receptor was 0.036 nM; at cloned mouse δ receptor, > 1000 nM; at cloned rat μ receptor it was 21 nM.
As to `CO[C@]12CC[C@@]3(C[C@@H]1C(C)(C)O)[C@H]1Cc4ccc(O)c5c4[C@@]3(CCN1CC1CC1)[C@H]2O5`, the Ki in assay [1] came out at 5 nM; in assay [2], 16 nM; in assay [3], 1.4 nM; at cloned mouse κ receptor it was 0.017 nM; on cloned mouse δ receptor, 0.23 nM. On MOP2, the “Specific binding of radioligand to MOP2” value was “did not bind specifically”.
